Source: patent publication US11583512B2, “Composition for relieving itch or irritation of skin, comprising thymol trimethoxycinnamate” (Amorepacific Corporation, priority 2020, dated 2023)

Amino acid sequences for entries named in this document (tags omitted).
UniProt Q15858, whole entry: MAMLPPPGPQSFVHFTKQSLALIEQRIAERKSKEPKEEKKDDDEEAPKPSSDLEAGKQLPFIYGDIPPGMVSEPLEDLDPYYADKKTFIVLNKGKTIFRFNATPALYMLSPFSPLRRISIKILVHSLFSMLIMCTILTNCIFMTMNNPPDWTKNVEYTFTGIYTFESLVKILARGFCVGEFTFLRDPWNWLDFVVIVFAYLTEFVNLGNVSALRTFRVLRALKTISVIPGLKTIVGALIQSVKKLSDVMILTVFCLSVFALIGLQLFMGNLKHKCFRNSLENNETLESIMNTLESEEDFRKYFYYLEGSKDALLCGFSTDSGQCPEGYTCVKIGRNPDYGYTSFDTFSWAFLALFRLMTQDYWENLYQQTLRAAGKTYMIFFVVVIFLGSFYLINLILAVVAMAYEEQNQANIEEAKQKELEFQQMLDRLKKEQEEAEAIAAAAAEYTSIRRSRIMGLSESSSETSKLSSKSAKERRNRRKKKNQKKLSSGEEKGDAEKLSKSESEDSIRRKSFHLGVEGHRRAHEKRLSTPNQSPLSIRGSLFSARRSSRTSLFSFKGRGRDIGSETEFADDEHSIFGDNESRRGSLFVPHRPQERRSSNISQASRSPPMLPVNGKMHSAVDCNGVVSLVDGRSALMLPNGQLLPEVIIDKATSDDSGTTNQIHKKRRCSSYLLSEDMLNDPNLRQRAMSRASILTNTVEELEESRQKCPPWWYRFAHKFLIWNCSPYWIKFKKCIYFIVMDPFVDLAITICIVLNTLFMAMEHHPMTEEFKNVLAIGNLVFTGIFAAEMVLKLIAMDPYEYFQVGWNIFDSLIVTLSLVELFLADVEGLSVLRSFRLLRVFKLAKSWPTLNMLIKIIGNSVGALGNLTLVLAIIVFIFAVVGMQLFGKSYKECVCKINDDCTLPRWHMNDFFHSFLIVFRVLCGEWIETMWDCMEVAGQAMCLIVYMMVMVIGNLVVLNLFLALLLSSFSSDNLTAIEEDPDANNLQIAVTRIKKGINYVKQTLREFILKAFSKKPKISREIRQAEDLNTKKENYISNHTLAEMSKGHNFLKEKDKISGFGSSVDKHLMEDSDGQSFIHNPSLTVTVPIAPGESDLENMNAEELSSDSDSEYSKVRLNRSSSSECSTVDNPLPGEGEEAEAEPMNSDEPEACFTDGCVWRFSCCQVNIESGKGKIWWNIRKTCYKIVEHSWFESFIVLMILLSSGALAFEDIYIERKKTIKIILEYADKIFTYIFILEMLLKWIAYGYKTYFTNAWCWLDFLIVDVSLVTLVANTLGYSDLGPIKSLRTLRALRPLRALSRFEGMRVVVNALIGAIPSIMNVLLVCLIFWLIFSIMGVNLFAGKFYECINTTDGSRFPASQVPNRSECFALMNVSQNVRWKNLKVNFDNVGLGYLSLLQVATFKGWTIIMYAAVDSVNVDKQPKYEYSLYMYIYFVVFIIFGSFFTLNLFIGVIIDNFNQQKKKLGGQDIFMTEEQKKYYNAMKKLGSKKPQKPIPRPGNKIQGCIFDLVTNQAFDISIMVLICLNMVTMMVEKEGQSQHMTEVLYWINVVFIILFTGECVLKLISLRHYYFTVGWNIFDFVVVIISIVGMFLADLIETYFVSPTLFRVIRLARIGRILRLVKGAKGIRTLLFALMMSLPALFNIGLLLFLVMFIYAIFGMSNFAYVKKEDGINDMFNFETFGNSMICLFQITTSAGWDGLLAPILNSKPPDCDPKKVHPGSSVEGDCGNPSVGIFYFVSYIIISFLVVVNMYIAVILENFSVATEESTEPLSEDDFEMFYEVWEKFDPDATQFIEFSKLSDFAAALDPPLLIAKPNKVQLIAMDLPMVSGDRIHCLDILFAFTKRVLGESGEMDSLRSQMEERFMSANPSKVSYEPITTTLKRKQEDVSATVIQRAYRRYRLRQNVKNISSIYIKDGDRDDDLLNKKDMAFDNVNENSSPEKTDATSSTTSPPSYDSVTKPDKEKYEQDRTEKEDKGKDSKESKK

Tests used:
[1] = target: voltage-gated sodium channel Nav1.7 (Homo sapiens, UniProt Q15858); assay: Nav1.7 inhibition, membrane potential fluorescence dye assay with veratridine stimulation in Human Nav1.7-HEK293 cells; assay type: cell-based
[2] = target: Nav1.7 human sodium ion channel (Homo sapiens, UniProt Q15858); assay: Nav1.7 human sodium ion channel cell-based automated patch clamp assay (Eurofins, CYL8011QP2); conditions: applied 5 minutes; for Inhibition rate (%) Pulse 1: pulse 1 (inhibition of channel opening); for Inhibition rate (%) Pulse 2: pulse 2 (inhibition of the deactivated state)
Description: Nav1.7 human sodium ion channel cell-based automated patch clamp assay (Eurofins, CYL8011QP2) was conducted. In a control step, the amplitude of current exceeding 200 pA was analyzed. The current amplitude was calculated by measuring the difference between the peak internal current and the residual current at the final step in −10 mV (current peak) steps. The current was evaluated under a vehicle control condition and then for 5 minutes after applying the compound.
The sodium channel is a) in resting or closed state at −120 mV, and b) in temporarily open deactivated state at 0 mV. The inhibition of channel opening (pulse 1) is measured from the sodium current at 0 mV within 1-2 ms. In order to completely deactivate the sodium channel and facilitate deactivated state-dependent drug biding, the channel was maintained longer in the open state (0 mV) and then returned to the deactivated resting or closed state at −120 mV for 10 ms. Then, the inhibition of the deactivated state (pulse 2) was evaluated at 0 mV for 50 ms. The compound was applied with each concentration for 5 minutes.

## COc1cc(/C=C/C(=O)Oc2cc(C)ccc2C(C)C)cc(OC)c1OC
[1]; Human Nav1.7-HEK293 cells, 30 μM veratridine as stimulant, membrane potential dye
  IC50: 3.1 µM
[1]; compared to lidocaine of the same concentration
  effect of inhibiting the voltage-gated sodium channel Nav1.7 compared to lidocaine: superior effect
[2]; 10 μM
  Inhibition rate (%) Pulse 1: 0.07%
  Inhibition rate (%) Pulse 2: 6.60%
[2]; 30 μM
  Inhibition rate (%) Pulse 1: 4.30%
  Inhibition rate (%) Pulse 2: 23.20%
[2]; 60 μM
  Inhibition rate (%) Pulse 1: 0.93%
  Inhibition rate (%) Pulse 2: 24.67%
[2]; 100 μM
  Inhibition rate (%) Pulse 1: 15.26%
  Inhibition rate (%) Pulse 2: 53.23%
[2]; 200 μM
  Inhibition rate (%) Pulse 1: 15.17%
  Inhibition rate (%) Pulse 2: 65.02%
